Patent US7279321B2, “Methods for increasing the resistance of a host cell to aromatic carboxylic acids” (priority 2003, dated 2007)

Experiments:
[1] = system: yhcRQP-luxCDABE gene fusion in strain DPD2436 (yhcS+); experiment: Bioluminescence response of yhcRQP-luxCDABE gene fusion; assay type: cell-based, E. coli
Excerpt: (§1) Plasmid pDEW655 was constructed by ligating an E. coli chromosomal segment between nucleotides 3385829 and 3386761 according to the E. coli genomic sequence, which contains the promoter region of the putative yhcRQP operon and the entire yhcR gene and the 5′ end of the yhcQ gene, to the luxCDABE genes parental plasmid, pDEW201 (Gonye et al. U.S. Patent Application Publication 20030219736). Thus, this gene fusion will report on expression of the yhcQ gene and accordingly any other genes cotranscribed with it. Plasmid pDEW655 was moved to E. coli strains MG1655 and DPD2433 by transformation, selecting for Ampicillin resistance to generate strains DPD2436 and DPD2437, respectively. The bioluminescent response of these two strains to pHBA was tested. Aliquots (50 μl) of actively growing cultures at 37° C. in LB medium that had been previously diluted and from overnight cultures in LB medium with 150 μg/ml Ampicillin were added to 50 μl of LB medium at pH 7.0 containing pHBA as the sodium salt form. Several concentrations of pHBA were tested. […] The yhcS::TN<Kan> mutation almost completely eliminated the upregulation of expression induced by pHBA treatment at all concentrations tested.

[2] = system: yhcRQP-luxCDABE gene fusion in strain DPD2437 (yhcS−); experiment: as above; assay type: cell-based, E. coli; details: ychS−, thirty minutes
Excerpt: as §1

[3] = system: E. coli strain DH5αE (parental); experiment: zone of growth inhibition test on LB agar plates; assay type: cell-based; details: disk with 90 μmol pHBA sodium salt, 24 hr at 37° C.
Protocol: (§2) A zone of growth inhibition test was done using 0.1 ml of overnight cultures in LB medium plated onto LB agar plates using 2.5 ml LB soft agar.

[4] = system: E. coli strain DPD2443 (yhcP::TN<Kan> of DH5αE); experiment: zone of growth inhibition test on LB agar plates; assay type: cell-based; details: disk with 90 μmol pHBA sodium salt, 24 hr at 37° C.
Protocol: as §2

[5] = system: E. coli DPD2444 (yhcP−); assay type: cell-based; details: MIC MG1655 versus MIC DPD2444
Protocol: Additional compounds were tested for growth inhibition of E. coli MG1655 (yhcP^+) and DPD2444 (yhcP^−) in Vogel-Bonner medium with glucose as the carbon source and with 0.01% tetrazolium violet added as an indicator of viability. A series of two-fold dilutions of each chemical was made to the wells of a clear 96-well microplate in 50 μl volume. To these wells was added 50 μl of an overnight culture in Vogel Bonner medium with glucose as a carbon source of either MG1655 or DPD2444 that had been previously diluted 500-fold into fresh medium. The plates were incubated at 37° C. without shaking for 16 to 18 hours. The purple color in each well was visually scored. A score of 4+ indicated full purple color equivalent to a no chemical control well. Scores of 3+, 2+, or 1+ indicated decreasing amounts of purple color. A score of − indicated the complete absence of color. The MIC was defined as the lowest tested concentration that gave complete absence of color. The rank of difference between strains was defined as the score of pigment color for E. coli MG1655 in wells containing the concentration of a given chemical at the MIC for DPD24444. When MG1655 had no color, the score was 0. When MG 1655 was scored at 1+, the score was 1, when scored at 2+, the score was 2, etc.

O=C(O)c1ccc(O)cc1 [pHBA, para-hydroxybenzoic acid]
Ratio treated/control ([1]; [pHBA] 1.6, thirty minutes): 10.6 | Ratio treated/control ([1]; [pHBA] 3.1, thirty minutes): 16.2 | Ratio treated/control ([1]; [pHBA] 6.2, thirty minutes): 25.7 | Ratio treated/control ([1]; [pHBA] 12.5, thirty minutes): 48.8 | Ratio treated/control ([1]; [pHBA] 25, thirty minutes): 106 | Ratio treated/control ([1]; [pHBA] 50, thirty minutes): 145 | Ratio treated/control ([1]; [pHBA] 100, thirty minutes): 0.693 | Ratio treated/control ([2]; [pHBA] 1.6): 1.25 | Ratio treated/control ([2]; [pHBA] 3.1): 1.42 | Ratio treated/control ([2]; [pHBA] 6.2): 1.75 | Ratio treated/control ([2]; [pHBA] 12.5): 2.23 | Ratio treated/control ([2]; [pHBA] 25): 1.95 | Ratio treated/control ([2]; [pHBA] 50): 0.753 | Ratio treated/control ([2]; [pHBA] 100): 0.055 | pHBA zone of growth inhibition (relative clarity) [3]: turbid | pHBA zone of growth inhibition (relative clarity) [4]: very slightly turbid | Fold Diff [5]: 8
